Results published in patent US20230251260A1, “METHODS OF DETERMINING CANCER THERAPY” (YISSUM RESEARCH DEVELOPMENT COMPANY OF THE HEBREW …, priority 2020, published 2023).

System: 4T1 cells
Assay: Survival assay (methylene blue) of irradiated 4T1 cells
Format: cell-based, mouse
Settings: drugs with RT, beginning 2 days prior to RT until 6 days post-RT
Description: Irradiation of parental cells: Cells were treated by single radiation with 5, 10, and 15 Gy doses of γ-rays of ^60Co by a radiotherapy unit (gamma cell 220) at a dose rate of 1.5 Gy/min.
4T1, MDA-MB-231, MDA-MB-468 and Br45 cells were trypsinized and plated to reach optimal confluences next day by (70-80) % before irradiation treatment. The next day, 4T1 cells were irradiated using (5 and 15) Gy of γ-rays. Radiation doses were selected based on calibration experiments in which the survival rates after irradiation ranged from 40-50% of the cells. MDA-MB-231 and BR45 cells were treated with 10 Gy with the exception of MDA-MB-468 cells which were treated with 5 Gy. Afterwards, cells were grown under normal conditions for 24 h, 48 h and 6 days. At each indicated timepoint, cells were detached from the flask using Acutase and fixed using 2% paraformaldehyde for 30 min in ice. Labelling procedure of each condition performed on the day of the flow cytometry analysis as mentioned below.
Survival Analysis: Cells were seeded at 70% confluency and treated as needed for different timepoints. Cells were washed with PBS and fixed with 4% PFA for 10 min. at R.T. The fixed cells were stained with Methylene Blue (MB) for 1 hour at R.T., washed and air dried overnight. The color was extracted with 0.1M HCl for 1 hour at R.T. Absorbance was read at 630 nm.

trastuzumab [Herceptin]
cell survival / sensitization of 4T1 cells to RT: significantly less effective in sensitizing the cells to RT
